Experiments:
[1] = molecular target: T1, MAO A (Rattus norvegicus, UniProt P21396); experiment: determination of monoaminooxidase A inhibition in dilute rat brain homogenate; assay type: biochemical
T1 construct: carried out in dilute rat brain homogenate; from tissue; host or cells: rat brain homogenate

Sequences of proteins named here, by UniProt entry; tags and fusion partners are left off.
UniProt P21396, whole entry: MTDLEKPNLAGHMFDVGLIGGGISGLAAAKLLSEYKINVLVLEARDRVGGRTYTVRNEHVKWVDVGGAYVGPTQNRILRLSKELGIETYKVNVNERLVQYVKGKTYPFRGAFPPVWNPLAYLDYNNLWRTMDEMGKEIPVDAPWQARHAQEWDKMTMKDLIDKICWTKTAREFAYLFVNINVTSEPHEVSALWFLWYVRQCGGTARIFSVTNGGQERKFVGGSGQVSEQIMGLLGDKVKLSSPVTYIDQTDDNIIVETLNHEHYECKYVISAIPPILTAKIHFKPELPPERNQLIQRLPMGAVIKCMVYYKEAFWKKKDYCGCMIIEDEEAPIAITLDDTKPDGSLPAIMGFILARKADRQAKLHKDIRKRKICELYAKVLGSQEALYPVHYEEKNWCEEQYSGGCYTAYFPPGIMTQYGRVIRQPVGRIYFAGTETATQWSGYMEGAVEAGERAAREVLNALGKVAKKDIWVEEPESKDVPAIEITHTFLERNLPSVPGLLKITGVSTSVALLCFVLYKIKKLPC
UniProt P19643, whole entry: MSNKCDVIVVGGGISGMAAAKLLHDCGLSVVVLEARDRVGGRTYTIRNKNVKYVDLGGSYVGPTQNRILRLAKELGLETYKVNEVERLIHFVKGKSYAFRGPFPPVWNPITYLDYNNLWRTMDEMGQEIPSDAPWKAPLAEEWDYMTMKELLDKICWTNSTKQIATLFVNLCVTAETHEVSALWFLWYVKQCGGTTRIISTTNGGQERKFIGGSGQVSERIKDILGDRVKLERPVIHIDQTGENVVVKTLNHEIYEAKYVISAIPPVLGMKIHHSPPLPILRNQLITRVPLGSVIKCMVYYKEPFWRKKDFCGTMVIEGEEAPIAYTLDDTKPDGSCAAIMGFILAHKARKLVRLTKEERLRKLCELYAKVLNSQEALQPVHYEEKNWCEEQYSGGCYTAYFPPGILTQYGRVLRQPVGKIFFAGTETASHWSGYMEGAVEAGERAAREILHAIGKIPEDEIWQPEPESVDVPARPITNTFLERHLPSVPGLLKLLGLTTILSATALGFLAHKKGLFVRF

[2] = molecular target: T2, MAO B (Rattus norvegicus, UniProt P19643); experiment: determination of monoaminooxidase B inhibition in dilute rat brain homogenate; assay type: biochemical; details: 14C-phenylethylamine or 14C-tryptamine 0.4 μmol/l, 20 min, 37° C., logit-log regression, read-out: IC50 MAO B (mean inhibitory concentration)
T2 construct: carried out in dilute rat brain homogenate; from tissue; host or cells: rat brain homogenate

Compound `NCCNC(=O)c1ccc(Cl)cn1` [Ro 19-6327, reference compound] has an IC50 [1] of over 10000 nM and an IC50 [2] of 22 nM.

Source: US5100914A, “Arylalkoxycoumarins” (BASF Aktiengesellschaft, priority 1988, dated 1992)
